This is a selection; strong and weak results do not stand in their true shares. Some tests of the compounds listed are not included; inactive here does not mean inactive elsewhere. Results filed as inconclusive are left out. Active and inactive are the calls of the source. Calls follow the shape of the dose curve; as a rule, active = well fitted inhibition curve with a large enough effect; inconclusive = small, poorly fitted or top-dose-only effect; inactive = no such curve, though single readings can be large or run the other way.
% is scaled to controls: 0 for no effect and ±100 for the full control effect.

This experiment is described as follows: qHTS Assay for Inhibitors of the ERK Signaling Pathway using a Homogeneous Screening Assay. Also: nearly all actives have a fitted effect of over 55% in size. To be noted: HEK293-V1b, vasopressin-stimulated pERK AlphaScreen; at 11.5 µM unless noted. For orientation: In qHTS, concentration-response curves come from the screen itself.
Regarding `C=C(C)C#C[C@@](O)(C(=O)OC1CCN(C)CC1)c1ccccc1`, the activity, negative = inhibition was inactive: 3%.

As for `CN1CC[C@H](OC(=O)[C@](O)(c2ccccc2)C2CCCC2)C1`, the activity, negative = inhibition is inactive: -11.4%.

Take `CN1CCC[C@H](OC(=O)[C@](O)(c2ccccc2)C2CCCC2)C1`: the activity, negative = inhibition is inactive: -15.5%.

Turning to `CN(C)c1cccc(C(=O)NCC2(N(C)C)CCCCC2)c1`, the activity, negative = inhibition is inactive: -6.74% [at 57.5 µM].

(Values after PubChem BioAssay AID995 (National Center for Advancing Translational Sciences (NCATS), 2007).)
